Results published in US10028938B2, “Antiviral agents and uses thereof” (Griffith University, priority 2014, dated 2018).

Key:
hPIV-3 HN [1] = biological target: T1, hPIV-3 HN (UniProt P08492); type: biochemical, hPIV-3 (strain C-243); design: rows headed: NI Mean IC50; hPIV-3 HN; 3 independent experiments; Ki; Km value for MUN; other: whole hPIV-3 virus, [I]=0; fold improvement in NI assay; other: versus 6; hPIV-3 HN NI IC50; other: text; other: text, unit given as M
T1 sequence (P08492 1-572): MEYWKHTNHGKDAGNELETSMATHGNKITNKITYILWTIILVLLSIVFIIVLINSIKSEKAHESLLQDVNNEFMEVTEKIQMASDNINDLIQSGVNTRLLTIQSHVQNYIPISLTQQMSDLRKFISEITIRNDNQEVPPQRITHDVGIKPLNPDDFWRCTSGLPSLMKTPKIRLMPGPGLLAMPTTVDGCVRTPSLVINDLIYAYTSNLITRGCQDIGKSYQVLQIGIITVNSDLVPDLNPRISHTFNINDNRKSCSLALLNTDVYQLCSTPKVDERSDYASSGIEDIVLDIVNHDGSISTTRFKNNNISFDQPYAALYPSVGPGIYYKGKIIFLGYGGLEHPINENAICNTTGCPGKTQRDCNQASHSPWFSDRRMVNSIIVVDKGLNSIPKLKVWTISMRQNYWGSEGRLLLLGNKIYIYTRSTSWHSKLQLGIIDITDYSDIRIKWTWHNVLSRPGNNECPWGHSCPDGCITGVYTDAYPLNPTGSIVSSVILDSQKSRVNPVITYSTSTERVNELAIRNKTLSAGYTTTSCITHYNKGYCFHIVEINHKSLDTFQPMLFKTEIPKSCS

hPIV-3 HN [2] = biological target: T1, hPIV-3 HN; type: biochemical, hPIV-3 (strain C-243); design: rows headed: HI Mean IC50; hPIV-3 HN; 3 independent experiments; fold improvement in HI assay; other: versus 6; hPIV-3 HN HI IC50; other: text; other: text, unit given as M
hPIV-3 HN [3] = biological target: T1, hPIV-3 HN; type: biochemical, hPIV-3 (strain C-243); design: rows headed: NI Mean IC50; hPIV-3 HN; 3 independent experiments; Ki; Km value for MUN; other: whole hPIV-3 virus, [I]=0; fold improvement in NI assay; other: versus 6; hPIV-3 HN NI IC50; other: text; other: text, unit given as M; remark: listed apart in the source
hPIV-3 HN [4] = biological target: T2, hPIV-3 HN (Human parainfluenza 3 virus, UniProt P08492); type: biochemical, hPIV-3 (strain C-243); conditions: read-out: hPIV-3 NI (IC50 values)
hPIV-3 HN [5] = biological target: T2, hPIV-3 HN; type: binding
[6] = relative to ArH4′, 20 μM hPIV-3 HN, protein:ligand 1:100

SMILES: CC(C)C(=O)N[C@H]1[C@H]([C@H](O)[C@H](O)CO)OC(C(=O)[O-])=C[C@@H]1n1cc(-c2ccccc2)nn1.[Na+] [Compound 10, Sodium 2,6-anhydro-3,4,5-trideoxy-5-isobutyramido-4-(4-phenyl-[1,2,3,]triazol-1-yl)-D-glycero-D-galacto-non-2-enonate]
- fold improvement in NI assay (hPIV-3 HN [1]): ~8 fold
- IC50 (hPIV-3 HN [1]; read-out: NI Mean IC50): 2740 nM
- fold improvement in HI assay (hPIV-3 HN [2]): ~11 fold
- IC50 (hPIV-3 HN [2]; read-out: HI Mean IC50): 1460 nM
- IC50 (hPIV-3 HN [2]; read-out: hPIV-3 HN HI IC50): 1500 nM
- Ki (hPIV-3 HN [3]): 1300 nM
- IC50 (hPIV-3 HN [4]): 1380 nM
- relative STD NMR signal intensities, C5 isobutyramido moiety's protons (hPIV-3 HN [5]; range over isobutyramido protons): 42-54%
- Relative STD NMR effect, ArH4′ (hPIV-3 HN [5]; reference signal, 20 μM hPIV-3 HN, protein:ligand 1:100): 100%
- Relative STD NMR effect, ArH2′ ArH6′ (hPIV-3 HN [5]; [6]): 95%
- Relative STD NMR effect, ArH3′ ArH5′ (hPIV-3 HN [5]; [6]): 100%
- Relative STD NMR effect, H3 (hPIV-3 HN [5]; [6]): 80%
- Relative STD NMR effect, H4 (hPIV-3 HN [5]; [6]): 59%
- Relative STD NMR effect, H5 (hPIV-3 HN [5]; [6]): 50% and 49%
- Relative STD NMR effect, H6 (hPIV-3 HN [5]; [6]): 49% and 47%
- Relative STD NMR effect, H7 (hPIV-3 HN [5]; [6]): 36%
- Relative STD NMR effect, H8 (hPIV-3 HN [5]; [6]): 35%
- Relative STD NMR effect, H9 (hPIV-3 HN [5]; [6]): 24%
- Relative STD NMR effect, H9′ (hPIV-3 HN [5]; [6]): 21%
- Relative STD NMR effect, Isoprop-2CH3 (hPIV-3 HN [5]; [6]): 42%
- Relative STD NMR effect, Isoprop-CH (hPIV-3 HN [5]; [6]): 54%
- Relative STD NMR effect, Triazole CH (hPIV-3 HN [5]; [6]): 75%

“And” between values parts separate entries of the source, which are not always exact repeats. Equal entries are not always repeated. Where two headings read alike, the source gives them in different places.
